Source: US20240376517A1 (THE UNIVERSITY COURT OF THE UNIVERSITY OF EDINBURCH, priority 2021, published 2024)

Test system: CD8+ T cells
Experiment: Reinvigoration of CD8+ T cells (GzmB expression)
Assay type: cell-based, mouse
Conditions: after IL-2 treatment
Procedure: Live-cell fluorescence confocal microscopy. E0771 (1.5×10^3 cells/well) were plated on Geltrex-coated 8-chamber glass slides with freshly isolated murine CD8+ T cells (1.2×10^4 cells/well) in enriched E-DMEM phenol red-free media with IL-2 (80 U mL^−1), anti-mouse CD3e (2 μg mL^−1) and anti-mouse CD28 (5 μL mL^−1). After 48 h, T cell reinvigoration was performed by addition of IL-2 (1,000 U mL^−1) and incubation for 3 h. Probe H5 was used at 25 μM and Ac-IEPD-CHO at 50 μM with 1 h preincubation. After 1 h treatment at 37° C. with H5, cells were washed with media and imaged under a Leica TCS SP8 fluorescent confocal microscope under a 40× oil objective. Excitation wavelengths: 488 nm (H5), 561 nm (mKate). Images were analyzed with ImageJ.

## IL-2: interleukin used to reinvigorate CD8+ T cells
  CD8+ T cells expressing inactive GzmB: over 80%
